This note sets out measurements from patent US20140120106A1, “Stimulation of Arterial Collateral Growth and Lymphogenesis” (YALE UNIVERSITY, priority 2011, published 2014).

One assay has as its system 14-3-3. In words: Immunoprecipitation of HA-RAF1 from HUVEC, western blot for 14-3-3. Type of assay: binding, Human. The note with it: anti-HA immunoprecipitation. The procedure: To determine whether Ser259 to Ala259 mutation in RAF1 affects ERK activation in endothelial cells, wild type and mutant RAF1 (RAF1 S259A) were overexpressed in HUVEC. HUVEC cells were infected with equal amount of empty lentivirus (Control), RAF1 WT (Raf1 WT) lentivirus or RAF1 S259A (Raf1 S259A) lentivirus as described above. Forty eight hours later, the cells were selected with 0.5 μg/ml puromycin for 4 days and analyzed by western blot with indicated antibodies. HUVEC cells described above were lysed as described, and immunoprecipitation was performed using anti-HA or control mouse IgG. For immunoprecipitation, cells were otherwise lysed in Triton lysis buffer (10 mM Tris-HCl, pH 7.5, 150 mM NaCl, 1% Triton X-100) supplemented with protease (Sigma) and phosphatase (Boston Bioproducts) inhibitors. Antibodies and Protein G agarose beads were then added to the cell lysates and incubated for 4 hours and 2 hours respectively. The beads were washed 6 times with Triton lysis buffer, boiled in 1× Laemmli loading dye, and subjected to SDS-PAGE and Western Blot
The immunoprecipitates were then analyzed by western blot with indicated antibodies.
For orientation: In western blotting, separated proteins are transferred to a membrane and probed.

Assay [1] relates to HUVEC. The experiment in a line: Matrigel tube formation assay. In kind it is cell-based, Human. The note with it: overexpression in HUVEC, 8 hours. Here is the method: Twenty four well plates were coated with 0.5 ml growth factor reduced Matrigel (BD Bioscience) at 37° C. for 1 hour. Endothelial cells were then trypsinized with 0.25% Trypsin-EDTA (Gibco), washed twice with and resuspended in serum-free DMEM (Lonza). Cell number was counted, and 6×10^4 cells were plated onto the Matrigel coated plates. Endothelial tube was allowed to form for 8 hours. Then the cells were fixed in 4% paraformaldehyde (PFA) in PBS, and pictures were taken under a convert microscope. Tube length was quantitated using Image J 1.410 (NIH).

The subject of assay [2] is HUVEC. In words: Apoptosis assay (serum withdrawal, Annexin V/PI flow cytometry). Type of assay: cell-based, Human. The note with it: serum-starved 48 hours, vehicle, versus empty control lentivirus. (In general: In flow cytometry, cells or beads pass a laser one at a time.)
The subject of assay [3] is HUVEC. In words: qPCR of lymphatic fate genes in virus-transduced HUVEC. Type of assay: cell-based, Human. The note with it: HUVEC transduced with the named construct. The text has this:
(§1) Raf1 lentiviruses were produced in 293A cells (Invitrogen) by co-transfection of pLVX-HA-Raf1 WT or S259A with lentiviral packaging plasmids pMD2.G, pRSV-REV and pMDLg/pRRE (Addgene) as described by Dull, J Virol 72:8463-8471 (1998). Control lentivirus was also made using an empty vector pLVX-IRES-puro. Ad-MEK1 CA was from Cell Biolabs, Inc. Ad-Mek1 DN was purchased from Vector Biolabs. All adenoviruses were produced, amplified and purified as described by Dull 1998; Luo, et al. Nat Protoc 2:1236-1247 (2007). For lentiviral infection, cells were incubated with lentivirus in growth medium in the presence of 8 μg/ml polybrene (Sigma) for 8 hours. For adenoviral infection, cells were incubated with adenovirus (MOI=100) in growth medium for overnight.
(§2) Total RNA was purified using a QiagenRNeasyPlus Mini kit. cDNA was synthesized using a Bio-Rad iScript cDNA Synthesisis kit. qPCR was performed using a Bio-Rad iQ SYBR Green Supermix on a Bio-Rad CFX96 Real Time System. For immunoblot, cells were lysed in RIPA buffer supplemented with protease and phosphatase inhibitors. Cell lysates were then separated with 4-20% gradient gel (Bio-Rad) and subjected to immunoblot.
On the technique in general: Quantitative PCR measures a nucleic acid by following its amplification.

Assay [4] relates to HUVEC. The experiment in a line: Proliferation assay (cell counting). In kind it is cell-based, Human. The note with it: overexpression in HUVEC. Here is the method:
Endothelial cells were placed on fibronectin-coated 24-well plates at a seeding density of 6000 cells/well in EGM-2 medium. Cell proliferation was analyzed by counting cell numbers every 24 fours.

Assay [5] concerns HUVEC. In words: Western blot of DLL4, cleaved NOTCH1 and ERK in RAF1 virus infected HUVEC. In kind it is cell-based, Human. The note with it: adenovirus MOI 0, 5, 10, 50 for 48 hours. Here is the method: (§3) The expression levels of a collection of genes involved in artery-vein specification in control, Raf1 WT and Raf1 S259A lentivirus infected HUVEC were investigated using real time quantitative PCR. For qPCR analysis, RNA was prepared from cells using a Qiagen RNaeasy kit (Cat. 74106) following the instructions from the manufacturer. cDNA was synthesized using iScript cDNA Synthesis kit (Bio-Rad). Gene expression was then analyzed by qPCR using a Bio-Rad SYBR kit on a Bio-Rad CFX96 system. Primers for qPCR were all purchased from SA Biosciences Corporation, MD. All gene expressions were normalized to glyceraldehyde-3-phosphate dehydrogenase (GAPDH) levels and represented as mRNA per 10^3 GAPDH. Standard errors were calculated based on three independent experiments. The cell lysates of these cells were also prepared and analyzed by western blot using indicated antibodies. In other experiments, HUVEC cells were infected with different doses (MOI: 0, 5, 10, 50) of Raf1 WT or S259A adenovirus for 48 hours. Cells were lysed and analyzed by western blot using indicated antibodies. (FIG. 3P).

The subject of assay [6] is HUVEC. In words: Migration (wound healing) assay. Type of assay: cell-based, Human. The note with it: under stimulation of serum, 18 hours. Here is the method: For the cell migration assay, endothelial cells were cultured to confluence in 24-well plates. Prior to serum starvation, the cells were treated with 10 μg/ml mitomycin C for four hours to block proliferation, and then washed three times with DMEM. The cells were starved overnight with 0.5% FBS, DMEM. A scratch was then made using a 200 μl tip, and the cells were allowed to migrate for 18 hours in DMEM containing 0.5%, 10% FBS or 50 ng/ml VEGF. Pictures were taken right after scratch making and at the end of migration. The migration rate was then determined by analyzing the distance that cells migrated during the period.

In a further assay the test system is ERK. In words: ERK activation by western blot in HUVEC infected with RAF1 WT or RAF1 S259A lentivirus. In kind it is cell-based, Human. The note with it: overexpression in HUVEC by lentivirus. The procedure: ERK activation was quantified by densitometry and is represented as ratio of pERK1/2 versus total ERK1/2. Immunofluorescence staining showing higher P-ERK1/2 in β-GAL positive endothelial cells of E12.5 S259A embryos. jv, jugular vein. FIGS. 10B-10E are graphs showing HUVEC transduced with control, wild type Raf1 or RAF1S259A lentiviruses treated with DMSO, MEK inhibitor U0126 (10 μM) or PI3K inhibitor LY294002 (10 μM) for 24 hours. Sox18 (FIG. 10B), Prox1 (Figure), Vegfr3 (FIG. 10D) and Lyve1 (10E) expression was assessed by qPCR. FIGS. 10E-10H are graphs showing HUVEC transduced with GFP or RAF1S259A adenoviruses treated with DMSO, Rapamycin (10 nM), AKT inhibitor VIII (1 μM) and LY294002 (10 μM) for 24 hours. Sox18 (FIG. 10F), Prox1 (FIG. 10G) and Coup-TFII (FIG. 10H) expression assessed by qPCR. Data are Mean±SEM (n=3).*, p<0.05; **, p<0.01.
Cells were cultured to 50-60% confluence on 6-well plates. […]
To determine whether Ser259 to Ala259 mutation in RAF1 affects ERK activation in endothelial cells, wild type and mutant RAF1 (RAF1 S259A) were overexpressed in HUVEC. […] Forty eight hours later, the cells were selected with 0.5 μg/ml puromycin for 4 days and analyzed by western blot with indicated antibodies. […]

Another assay concerns HDLEC. The experiment in a line: qPCR of lymphatic fate genes in adenovirus-transduced HDLEC. In kind it is cell-based, Human. The note with it: HDLEC transduced with the named construct.
Description: as §1, §2

For assay [7], the system named is HUVEC. In words: qPCR of artery-vein specification genes in lentivirus infected HUVEC. Type of assay: cell-based, Human. Here is the method: as §3

Take “RAF1 WT: HA-tagged human wild type RAF1 overexpressed by lentivirus or adenovirus [reference compound]”: the “co-immunoprecipitation with 14-3-3” value in the assay with 14-3-3 is reported as “co-immunoprecipitated”. Further, the “tube formation (tube length)” value with HUVEC [1] is reported as “slightly improved”. The cell survival entry with HUVEC [2] is reported as “lower survival”. Besides, in the assay with HUVEC [3], the Prox1 expression result is listed as “no significant effects” and the Sox17 expression entry was “not”. For the same substance, in the assay with HUVEC [3] (listed as wild type RAF1), the Sox18 expression entry was “no significant effects”. Moreover, the Sox18 expression result in the assay with HUVEC [3] (listed as wild type Raf1) was “not”. The cell proliferation entry with HUVEC [4] was “little effect”. Moreover, in the assay on HUVEC [5], the DLL4 protein result is “marginal effect” and the ERK activity entry is listed as “marginal effect”. The cell migration entry with HUVEC [6] was “no obvious effect”. Also, in the assay on ERK, the ERK activation result is recorded as “marginal effect”. Further, in the assay with HDLEC, the Sox17 expression result is given as “not” and the Sox18 expression result is “not”. The “effect on these genes (arterial genes induced by RAF1 S259A)” value in the assay with HUVEC [7] is “marginal effect”.
